PGC1a acetyl inh = modulators of PGC1a acetylation; U2OS PGC1a acetylation, AlphaScreen anti-acetyl-lysine; with virally co-expressed GCN5 acetyltransferase; inhibition, % at 15.6 µM; 350,000 tested, 0.17% active;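 active = every replicate shows inhibition of at least 40%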
esBAF inh = SWI/SNF esBAF complex inhibition; mouse ES cells, Bmi1-luciferase knock-in reporter, 24 h; 100% = twice the neutral-well signal; reporter increase, % at 12.5 µM; 350,000 tested, 2% active; in the data active = activation above about 40%;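 note: a rise in the Bmi1 reporter signal indicates esBAF inhibition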
Statin myotox sup = suppression of simvastatin myotoxicity | AID 602340 | C2C12 myotubes + simvastatin, ATP luminescence, 48 h; scaled: DMSO 0, geranylgeraniol control 100 | rescue of ATP level, % at 7.49 µM | 330,000 tested, 0.78% active;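 active = mean ATP rescue above about 67%, or every replicate alone reaching that limit, limit read from the data, passing the limit was not always enough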;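 note: myotubes were challenged with 10 µM simvastatin during compound exposure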
PglD inh = blocks C. jejuni PglD acetyltransferase activity; inhibition, % at 12.5 µM; purified PglD enzyme, DTNB colorimetric CoA detection; AID 602405; 360,000 tested, 0.098% active; in the data active = inhibition above about 16%, passing the limit was not always enough
UUG fidelity = modulators of start codon recognition fidelity in yeast. activity score, % at 18.7 µM. S. cerevisiae UUG-firefly luciferase reporter, luminescence/redox ratio. 350,000 compounds, 0.13% hits;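 active means replicate mean at a twofold rise or more, about +100% in these data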;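 further: firefly luciferase made from a UUG start codon reports start codon fidelity; reporter light over untreated wells divided by growth signal over untreated wells; some hits fall short of that in this replicate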
E-selectin induc = induces E-selectin expression in human endothelial cells. P16581. HUVEC E-selectin immunofluorescence imaging; normalized: neutral wells 0, TNF-alpha wells 100. activation, % at 7.58 µM. 260,000 tested, 0.37% active. AID 686992;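 active = mean E-selectin-positive cell signal at least 10% of the positive control, reached in at least 60% of replicates, without over 20% cell loss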
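System: HUVEC, human umbilical vein endothelial cells; quantity: 3,000 cells/well; buffer or medium: EGM-2 medium, gelatin-coated wells; dosing: single-point compound dose; detection: immunofluorescence imaging; evaluation: % PE-positive cells; benchmarks: TNF-alpha, DMSO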
Large screens that a line does not name were inactive. This is a sample that favours compounds with a hit; in the whole collection about 2.8% have one here.

Fc1cccc(Cc2c(-c3ccco3)nc3c4ccccc4ccn23)c1	esBAF inh 72.2
COc1ccc(-c2nc3c4ccccc4ccn3c2Cc2ccccc2)cc1OC	esBAF inh 45.1 (no result: E-selectin induc)
CCCc1nc2c3ccccc3ccn2c1Cc1cccc(F)c1	esBAF inh 45.8
COc1ccc(S(=O)(=O)N(C)C[C@@H]2Oc3ccc(NS(=O)(=O)c4ccc(C)cc4)cc3C(=O)N([C@H](C)CO)C[C@@H]2C)cc1	none (no result: esBAF inh, Statin myotox sup, PglD inh, UUG fidelity)
CO[C@H]1CN(C)C(=O)c2cc(NC(=O)Nc3c(C)noc3C)ccc2OC[C@@H](C)N(C)C[C@@H]1C	none (no result: UUG fidelity)
CCC(=O)Nc1ccc2c(c1)C(=O)N(C)[C@@H]1CC[C@@H](CC(=O)Nc3cccc(OC)c3)O[C@H]1CO2	none
CS(=O)(=O)N(Cc1ccc(F)cc1)Cc1nc2ccccc2c(=O)[nH]1	Statin myotox sup 98.8 (no result: E-selectin induc)
CCCOc1ccc(C(=O)C(CN2CCOCC2)c2ccccc2)cc1 (stereo not drawn)	Statin myotox sup 78.5 (no result: E-selectin induc)
CCCOc1ccc(C(=O)C(c2ccccc2)N2CCOCC2)cc1 (stereo not drawn)	none (no result: PglD inh, E-selectin induc)
COc1ccc(C(=O)C(CN2CCOCC2)c2ccccc2)cc1F (stereo not drawn)	PGC1a acetyl inh 114.0 (no result: PglD inh, UUG fidelity, E-selectin induc)
Cc1noc(C)c1NC(=O)Nc1ccc2c(c1)C(=O)N([C@@H](C)CO)C[C@H](C)[C@@H](CN(C)C(=O)Nc1cccc3ccccc13)OCCCC[C@@H](C)O2	none (no result: Statin myotox sup)
C[C@@H]1CCCCO[C@@H](CN(C)Cc2ccccc2)[C@H](C)CN([C@@H](C)CO)C(=O)c2cc(N(C)C)ccc2O1	none
Cn1c(SCC(=O)N2CCN(C(=O)c3ccco3)CC2)nnc1-c1ccc(NS(C)(=O)=O)cc1	Statin myotox sup 97.9
Cc1cc2cc(C)c3nnc(SCC(=O)N4CCN(C(=O)c5ccco5)CC4)n3c2cc1C	none (no result: esBAF inh, Statin myotox sup, PglD inh, UUG fidelity, E-selectin induc)
Cn1c(=O)c2c(nc(SCCN3CCOCC3)n2Cc2ccccc2Cl)n(C)c1=O	none (no result: PGC1a acetyl inh)
Cn1c(=O)c2c(nc(SCCN3CCOCC3)n2Cc2ccc(F)cc2)n(C)c1=O	esBAF inh 56.4 (no result: E-selectin induc)
O=C(CCN1CCCCC1)NCC[C@@H]1CC[C@@H](NS(=O)(=O)c2cccc(F)c2)[C@H](CO)O1	none
CCCNC(=O)C[C@@H]1CC[C@@H]2[C@H](COC[C@H](O)CN2Cc2ccc(Cl)c(Cl)c2)O1	none
Cc1ccccc1CN1CCN(S(C)(=O)=O)CC1	none (no result: PGC1a acetyl inh, E-selectin induc)
Cc1ccccc1CN1CCN(S(=O)(=O)c2ccc(Cl)s2)CC1	E-selectin induc 290.4
Nc1ccc2c3c(cccc13)-c1ccccc1-2	Statin myotox sup 125.9 (no result: esBAF inh)
COc1ccc2c3c([nH]c2c1)[C@@H](CO)N(C(=O)Nc1ccc(F)cc1)CC31CN(C(=O)Cc2ccncc2)C1	none (no result: esBAF inh, Statin myotox sup, PglD inh, UUG fidelity)
Cc1ccc(OCCN2C(=O)c3ccccc3C2=O)cc1	none (no result: E-selectin induc)
O=C1c2ccccc2C(=O)N1CCOc1cccc(Br)c1	esBAF inh 41.4 (no result: PGC1a acetyl inh)
Cc1ccc2cc(CN(CC3CCCO3)C(=O)Nc3ccccc3F)c3nnnn3c2c1 (stereo not drawn)	esBAF inh 45.1 (no result: PglD inh, UUG fidelity, E-selectin induc)
Cc1ccc2cc(CN(CC3CCCO3)S(=O)(=O)c3ccccc3)c3nnnn3c2c1 (stereo not drawn)	none (no result: E-selectin induc)
Cc1ccc(OCC(=O)NC2=NCCS2)cc1	none (no result: esBAF inh, Statin myotox sup, E-selectin induc)
Cc1ccccc1OCC(=O)NC1=NCCS1	esBAF inh 44.5 (no result: PGC1a acetyl inh, E-selectin induc)
COc1ccc(NC(=O)Nc2ccc3c(c2)CC(=O)N([C@@H](C)CO)C[C@@H](C)[C@H](CN(C)S(C)(=O)=O)O3)cc1	none (no result: esBAF inh, Statin myotox sup, PglD inh, UUG fidelity, E-selectin induc)
COc1ccccc1-c1c(C(F)(F)F)oc2cc(OC(=O)c3ccc([N+](=O)[O-])cc3)ccc2c1=O	esBAF inh 66.7 (no result: PGC1a acetyl inh, Statin myotox sup, E-selectin induc)
C[C@H](NC(=O)C[C@@H]1CC[C@@H](NC(=O)c2cccnc2)[C@H](CO)O1)c1ccccc1	none (no result: UUG fidelity)
COc1ccc(CNC(=O)c2c(O)c3cccc4c3n(c2=O)CCC4)cc1OC	Statin myotox sup 78.9 (no result: E-selectin induc)
COc1ccc(CNC(=O)c2c(O)c3cccc4c3n(c2=O)CCC4)cc1	none (no result: E-selectin induc)
Cc1ccc(S(=O)(=O)Nc2ccc3c(c2)CC(=O)N([C@H](C)CO)C[C@H](C)[C@@H](CN(C)Cc2ccc(Oc4ccccc4)cc2)O3)cc1	none
Cc1ccc(S(=O)(=O)Nc2ccc3c(c2)CC(=O)N([C@@H](C)CO)C[C@@H](C)[C@H](CN(C)Cc2ccc(Oc4ccccc4)cc2)O3)cc1	Statin myotox sup 83.1
COc1ccc(S(=O)(=O)Nc2ccc3c(c2)CC(=O)N([C@@H](C)CO)C[C@@H](C)[C@H](CN(C)Cc2ccc(-c4ccccc4)cc2)O3)cc1	Statin myotox sup 140.2
COc1ccc(S(=O)(=O)Nc2ccc3c(c2)CC(=O)N([C@H](C)CO)C[C@@H](C)[C@H](CN(C)Cc2ccc(C(F)(F)F)cc2)O3)cc1	Statin myotox sup 78.9
COc1ccc(S(=O)(=O)Nc2ccc3c(c2)CC(=O)N([C@H](C)CO)C[C@@H](C)[C@@H](CN(C)Cc2ccc(-c4ccccc4)cc2)O3)cc1	none
COc1ccc(S(=O)(=O)Nc2ccc3c(c2)CC(=O)N([C@H](C)CO)C[C@@H](C)[C@H](CN(C)C(=O)NC2CCCCC2)O3)cc1	E-selectin induc 48.0
CCCC(=O)Nc1ccc2c(c1)C(=O)N(C)C[C@H](OC)[C@H](C)CN(Cc1ccccn1)[C@@H](C)CO2	none
CO[C@H]1CN(C)C(=O)c2cc(NC(C)=O)ccc2OC[C@H](C)N(Cc2cncnc2)C[C@H]1C	none
CN(C)CC(=O)Nc1ccc2c(c1)[C@H]1C[C@H](CC(=O)NCc3ccncc3)O[C@H](CO)[C@H]1O2	none
COc1ccc(CN(C)C[C@@H]2Oc3ccc(NS(=O)(=O)c4ccc(F)cc4)cc3CC(=O)N([C@H](C)CO)C[C@H]2C)cc1	Statin myotox sup 74.8
COc1ccc(S(=O)(=O)Nc2ccc3c(c2)CC(=O)N([C@@H](C)CO)C[C@@H](C)[C@H](CN(C)Cc2ccc(C(F)(F)F)cc2)O3)cc1	Statin myotox sup 75.6
CNC[C@H]1Oc2ccc(NS(=O)(=O)c3ccc(OC)cc3)cc2CC(=O)N([C@@H](C)CO)C[C@@H]1C	E-selectin induc 60.0
C[C@H]1CN([C@@H](C)CO)C(=O)c2cc(N(C)C)ccc2O[C@@H]1CN(C)C(=O)NC1CCCCC1	none (no result: UUG fidelity)
CN1CCN(C(=O)C[C@@H]2CC[C@@H]3[C@H](COC[C@H](O)CN3C(=O)Nc3ccc(F)cc3)O2)CC1	none (no result: UUG fidelity)
COc1ccc(N(C(=O)c2snc(C(N)=O)c2N)C(C(=O)NC2CCCC2)c2ccco2)cc1 (stereo not drawn)	none (no result: PGC1a acetyl inh)
COc1ccc(N(C(=O)c2snc(C(N)=O)c2N)C(C(=O)NC2CCCCC2)c2ccc(C)o2)cc1 (stereo not drawn)	Statin myotox sup 74.7
COc1cc(OC)cc(N(C(=O)c2snc(C(N)=O)c2N)C(C(=O)NCC2CCCO2)c2ccc(C)o2)c1 (stereo not drawn)	E-selectin induc 44.1 (no result: PGC1a acetyl inh)
